Reference: ChEMBL document CHEMBL4325838, “Norbornane-based cationic antimicrobial peptidomimetics targeting the bacterial membrane” (Eur J Med Chem, 2018)

Key:
Escherichia coli = assay: Antibacterial activity against Escherichia coli ATCC 25922 after 18 to 20 hrs by broth microdilution assay; assay type: functional
How it was run: (§1)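 Bacteria grown overnight at 37 °C with shaking in nutrient broth or Mueller-Hinton broth (MHB). Cultures were diluted 50-fold in MHB and grown 1.5–3 h to mid-log phase, then set at 5×10^5 CFU/mL final. Compounds were 2-fold serially diluted, final 32 to 0.015 µg/mL, 1% DMSO. After 18–20 h at 37 °C, MIC was read visually as the lowest concentration with no visible growth. Two independent experiments of n = 2 (n = 4).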

Klebsiella pneumoniae [1] = settings: ATCC 13883, 10 ug/disc
Acinetobacter baumannii [2] = settings: ATCC 19606 = CIP 70.34 = JCM 6841, 10 ug/disc
Pseudomonas aeruginosa [3] = assay: Antibacterial activity against Pseudomonas aeruginosa ATCC 27853 after 18 to 20 hrs by broth microdilution assay; assay type: functional; how it was run: as §1
Klebsiella pneumoniae [4] = assay: Antibacterial activity against multidrug-resistant Klebsiella pneumoniae ATCC 700603 after 18 to 20 hrs by broth microdilution assay; assay type: functional
How it was run: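 Strains were grown overnight at 37 °C with shaking in nutrient broth or MHB, diluted 50-fold in MHB and grown 1.5–3 h to mid-log. Compounds were 2-fold serially diluted in MHB at 32 to 0.015 µg/mL final (1% DMSO) with 5×10^5 CFU/mL. After 18–20 h at 37 °C, MIC was read visually as the lowest concentration with no visible growth. Two independent experiments of n = 2 (n = 4).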

Acinetobacter baumannii [5] = assay: Antibacterial activity against Acinetobacter baumannii ATCC 19606 after 18 to 20 hrs by broth microdilution assay; assay type: functional; settings: ATCC 19606 = CIP 70.34 = JCM 6841; how it was run: as §1
Pseudomonas aeruginosa [6] = settings: ATCC 27853, 10 ug/disc

COLISTIN SULFATE
MIC (Escherichia coli): 0.06 µg/mL | IZ (Klebsiella pneumoniae [1]): 20 mm | IZ (Acinetobacter baumannii [2]): 20 mm | MIC (Pseudomonas aeruginosa [3]): 0.25 µg/mL | MIC (Klebsiella pneumoniae [4]): 0.03 µg/mL | MIC (Acinetobacter baumannii [5]): 0.06 µg/mL | IZ (Pseudomonas aeruginosa [6]): 19 mm
